From PubChem BioAssay AID2533 (National Center for Advancing Translational Sciences (NCATS), 2010) come the findings set out here.

By UniProt entry, the sequences of proteins in these tests, tags left out.
UniProt P14618, whole entry, looked up: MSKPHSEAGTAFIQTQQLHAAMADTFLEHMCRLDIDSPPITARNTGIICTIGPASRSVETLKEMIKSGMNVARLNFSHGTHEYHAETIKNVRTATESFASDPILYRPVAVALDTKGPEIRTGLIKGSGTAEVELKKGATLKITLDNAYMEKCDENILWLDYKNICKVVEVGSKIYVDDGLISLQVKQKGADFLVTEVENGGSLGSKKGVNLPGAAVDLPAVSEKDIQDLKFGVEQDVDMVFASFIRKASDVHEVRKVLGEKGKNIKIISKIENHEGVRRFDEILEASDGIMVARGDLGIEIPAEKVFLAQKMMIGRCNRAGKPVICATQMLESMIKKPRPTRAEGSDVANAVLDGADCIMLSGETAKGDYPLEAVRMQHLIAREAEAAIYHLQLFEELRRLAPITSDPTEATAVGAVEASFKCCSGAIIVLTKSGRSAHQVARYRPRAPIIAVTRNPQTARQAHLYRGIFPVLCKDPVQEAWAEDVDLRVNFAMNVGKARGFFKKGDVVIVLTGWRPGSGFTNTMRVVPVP

The list shows a part of the results, in another mix than the full data. Inconclusive results are not listed. Active and inactive are the calls of the source. Calls follow the shape of the dose curve; as a rule, active = well fitted activation curve with a large enough effect; inconclusive = small, poorly fitted or top-dose-only effect; inactive = flat fitted curve, though single readings scatter.
Potency is read from the fitted curve at half-maximal effect.

The target in the assay is Pyruvate kinase PKM (Homo sapiens) (UniProt P14618). Nature of the assay: Confirmation Concentration-Response Assay for Activators of Human Muscle isoform 2 Pyruvate Kinase: for Probe SAR. Also: nearly all actives have a fitted effect of over 60% in size. The following applies: purified PKM2, ATP generation, Kinase-Glo luminescence. The text has this: NIH Chemical Genomics Center [NCGC]
Matthew G. Vander Heiden, M.D., Ph.D. [Harvard Medical School, 77 Avenue Louis Pasteur, Boston, MA 02115]
Human pyruvate kinase muscle 2 (hPK-M2) enzyme was supplied as a highly purified (>95% pure) preparation from Harvard Medical School and assayed for its ability to generate ATP from ADP using phosphoenolpyruvate (PEP) as a substrate. ATP generation was detected in a coupled reaction by luciferase-mediated luminescence, an ATP-dependent process. Pyruvate kinase substrates, PEP and ADP, were present in the assay at Km and approximately 10-fold below Km respectively. The enzyme was assayed at an intermediate level of activity to screen for both inhibitors and activators.
NCGC Assay Protocol Summary:
Three uL of substrate mix (at r.t.) in assay buffer (50 mM Imidazole pH7.2, 50 mM KCl, 7 mM MgCl2, 0.01% Tween 20, 0.05% BSA) was dispensed into white solid bottom 1,536 well microtiter plates so that the final concentrations of substrates in the assay were 0.1 mM ADP and 0.5 mM PEP. 23 nL of compound were delivered by a pin tool and 1 uL of enzyme mix (final concentration of 0.1 nM) in assay buffer (4 degree Celsius) was added. Plates were incubated at room temperature for 1 hour. Two uL of detection mix (Kinase-Glo, Promega; at 4 degree Celsius protected from light) was added and luminescence read by a ViewLux (Perkin Elmer) at 1 second exposure/plate. […]
On to `Nc1cccc(S(=O)(=O)N2CCCN(S(=O)(=O)c3ccc4c(c3)OCCO4)CC2)c1`, for which the Potency is active: 130 nM.
